# Data as given in patent US6429286B1, “Immunoregulatory molecules for costimulatory signal transduction” (priority 1997, dated 2002).
# Columns and labels:
# T cells (spleen cells) = assay: T cell growth, [3H]-thymidine take-up by spleen cells of mice primed with W. T. phage; type: cell-based, BALB/c mice; conditions: phage 0.015 to 5 μg/ml, three days culture, FIG. 4
# Description: BALB/c mice (6 weeks old; four animals per group) were used in an experiment and the phages were purified as described by Smith et al. (G. P. Smith, Method in Enzymology, Vol. 217, p.228-257 (1993), Academic Press). An amount of the phages was measured using protein assay kit (BioRad) with bovine serum albumin as a standard and expressed as a protein concentration.
# First, for antigen, stimulation, BALB/c mice were administered intraperitoneally with 10 μg (200 μl/PBS) of phage (W. T.) not expressing pIII protein. Four weeks after the administration, spleen cells were removed from each mouse in the usual manner. The spleen cells were added to each well of 96-well culture plate at 1.5×10^5 cells/well. To each well was added purified W. T. or phages expressing any of F1 to F6 sequence at a final concentration of 0.015 to 5 μg/ml to make a total volume of 200 μl (RPMS 1640 medium containing 10% FCS) Triplicates were used for each sample. After incubating these samples on ice for 30 minutes, the cells were cultured under condition of 5% CO2 at 37° C. for three days. Eighteen hours before completion of culture, the cells were pulse-labeled with [^3H]-thymidine (0.5 μCi/well). The cells were harvested with a cell harvester and a take-up of [^3H]-thymidine was measured with a liquid scintillation counter.
# [1] = system: anti-mouse CTLA-4 monoclonal antibody; assay: ELISA: reactivity of plate-coated phage clones with the anti-mouse CTLA-4 monoclonal antibody; type: binding, hamster; conditions: phage 4x10^9 virions/well, antibody 200 ng/ml, FIG. 2 and 3
# Description: The obtained 58 phage clones were subjected to primary screening with ELISA. A 96 well ELISA plate (Sumitomo Bakelite, Tokyo) was coated with each phage (4×10^9 virions/well/40 μl) purified as described by Smith et al. (G. P. Smith, Method in Enzymology, Vol. 217, p.228-257 (1993), Academic Press) at 4° C. overnight. The plate was washed with TBST and was blocked with 100 μl/well of 50 mM Tris-HCl, pH 7.5, 150 mM NaCl supplemented with 0.02% NaN3 and 1% BSA at room temperature for 2 hours. After washing with TBST, the plate was added with the anti-mouse CTLA-4 monoclonal antibody (200 ng/ml/well/100 μl) and reacted at room temperature for 1 hour. After washing with TBST; the plate was reacted with anti-hamster IgG antibody (Zymet, California) labeled with alkaline phosphatase diluted to 250-fold with TBS at room temperature for 1 hour. After washing, the plate was added with the substrate sodium p-nitrophenylphosphate hexahydrate (Wako Junyaku, Osaka) was added and absorbance at 405 nm was measured.
# Whether each of the motifs as shown in Example 4 specifically binds to the anti-mouse CTLA-4 monoclonal antibody was investigated. A degree of specificity was determined by ELISA as described in Example 3. As a negative control, anti-mouse CD28 antibody (Phamingen, San Diego), having the same isotype with the anti-mouse CTLA-4 monoclonal antibody, and hamster IgG were used. […]
substance,measurement,setting,value
Ala Cys Val Met Tyr Asp Phe Val Leu Arg Gly Met Cys Ala Arg,growth of T cells as compared to W. T. phage,T cells (spleen cells),approximately equivalent to that with W. T. phage
same,reactivity with anti-mouse CTLA-4 monoclonal antibody,[1],reacted weakly
